Test: Molar absorptivity of phenolic precursors of substrates
Assay type: physicochemical
Conditions: 405 nm, pH 7.5

Row | SMILES | Molar Absorptivity (εmax)
1 | O=[N+]([O-])c1cc(Cl)c(O)c([N+](=O)[O-])c1 | 11.5 (405 nm, pH 7.5)
2 | Cc1cc([N+](=O)[O-])cc([N+](=O)[O-])c1O | 11.0 (405 nm, pH 7.5)
